Calls of active or inactive are those of the source. The rule behind the calls is not given here.

The target of the experiment is T1, Retinoic acid receptor RXR-alpha (Homo sapiens) (UniProt P19793).
T1 sequence (whole entry): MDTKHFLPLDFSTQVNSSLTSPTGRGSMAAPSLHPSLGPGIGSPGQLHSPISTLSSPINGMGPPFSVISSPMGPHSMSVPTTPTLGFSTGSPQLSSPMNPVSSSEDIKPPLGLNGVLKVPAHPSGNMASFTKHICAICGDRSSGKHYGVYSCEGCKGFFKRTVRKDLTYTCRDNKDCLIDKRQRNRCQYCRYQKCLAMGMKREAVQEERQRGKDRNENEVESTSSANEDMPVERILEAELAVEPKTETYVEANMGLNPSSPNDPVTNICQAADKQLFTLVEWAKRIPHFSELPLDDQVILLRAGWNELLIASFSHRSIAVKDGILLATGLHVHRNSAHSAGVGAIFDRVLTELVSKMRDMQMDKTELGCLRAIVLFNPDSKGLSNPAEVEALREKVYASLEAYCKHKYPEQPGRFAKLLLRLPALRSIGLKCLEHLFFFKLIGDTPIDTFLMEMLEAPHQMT
Put plainly: Agonist activity at full length human RxRalpha heterodimer response element DR5 expressed in HEK293T cells co-expressing firefly luciferase assessed as firefly luciferase activity up to 100 uM incubated for 12 to 14 hrs by hybrid reporter gene assay. Type of experiment: cell-based. The following applies: filed as agonist, dose microM <=100, time 12-14 hrs. Put shortly:
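Full-length receptor assay in HEK293T cells transiently cotransfected with pFR-Luc-DR5 reporter, human Nurr1 (pcDNA3.1-hNurr1-NE), human RXR (pSG5-hRXR) and SV40-renilla. Five hours post-transfection, compound was added in Opti-MEM with 0.1% DMSO for 12−14 h, then a dual-luciferase read-out. Firefly/renilla ×1000 gave RLU, expressed as fold over DMSO control. Duplicates, ≥3 independent experiments.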
(In general: In a reporter assay the amount or activity of a reporter protein is the signal.)

With `Nc1cccc2c(Cl)cccc12`, the result was Active.

(Values after ChEMBL document CHEMBL4823246, “Fragment-like Chloroquinolineamines Activate the Orphan Nuclear Receptor Nurr1 and Elucidate Activation Mechanisms” (J Med Chem, 2021).)
